According to US7317025B2, “Non-peptidic NPY Y2 receptor inhibitors” (Johnson & Johnson Pharmaceutical Research & Development, LLC, priority 2003, dated 2008):
Only a part of the results on these compounds is given; other tests are left out.

Sequences of proteins named here, by UniProt entry; tags and fusion partners are left off.
UniProt P49146, whole entry: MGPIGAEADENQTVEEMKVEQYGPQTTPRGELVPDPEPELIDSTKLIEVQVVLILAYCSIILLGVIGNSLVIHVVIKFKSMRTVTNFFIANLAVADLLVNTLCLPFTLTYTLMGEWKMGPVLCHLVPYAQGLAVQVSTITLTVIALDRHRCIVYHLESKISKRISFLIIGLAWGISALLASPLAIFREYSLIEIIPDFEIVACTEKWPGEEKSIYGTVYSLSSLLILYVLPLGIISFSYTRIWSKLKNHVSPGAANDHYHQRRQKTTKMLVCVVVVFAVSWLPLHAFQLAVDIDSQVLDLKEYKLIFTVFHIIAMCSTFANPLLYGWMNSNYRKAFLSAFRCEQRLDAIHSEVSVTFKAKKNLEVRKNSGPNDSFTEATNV

Assays:
Y2 receptors [1] = biological target: T1, Y2 receptors (Homo sapiens, UniProt P49146); assay: Radioligand binding assay, [125I]PYY, KAN-Ts membranes; details: membranes of KAN-Ts cells endogenously expressing Y2 receptors; [125I]PYY (80 pM); 1 h at rt
Y2 receptors [2] = biological target: T1, Y2 receptors; assay: [35S]GTPγS binding assay in KAN-Ts cells; details: PYY-stimulated [35S]GTPγS binding; KAN-Ts membranes

## CC(=O)N1CCc2ccc(N(C(=O)/C=C/c3cccc([N+](=O)[O-])c3)C3CCN(CCC4CCCCC4)CC3)cc21
Y2 receptors [1]
  IC50: 0.5 µM

## CC(=O)N1CCc2ccc(N(C(=O)/C=C/c3ccccc3)C3CCN(CCC4CCCC4)CC3)cc21
Y2 receptors [1]
  IC50: 0.8 µM

## CC(=O)N1CCCc2ccc(N(C(=O)/C=C/c3ccccc3)C3CCN(Cc4ccccc4)CC3)cc21
Y2 receptors [1]
  IC50: 10 µM

## CC(=O)N1CCc2ccc(N(C(=O)/C=C/c3ccccc3)C3CCN(CCC4CCCCC4)CC3)cc21
Y2 receptors [1]
  IC50: 0.6 µM

## CC(=O)N1CCc2ccc(N(C(=O)/C=C/c3cccc(C#N)c3)C3CCN(Cc4ccccc4)CC3)cc21
Y2 receptors [1]
  IC50: 1 µM

## CC(=O)N1CCc2ccc(N(C(=O)/C=C/c3cccc(Cl)c3)C3CCN(Cc4ccccc4)CC3)cc21
Y2 receptors [1]
  IC50: 3 µM

## CC(=O)N1CCc2ccc(N(C(=O)/C=C/c3cccc(C#N)c3)C3CCN(CCC4CCCC4)CC3)cc21
Y2 receptors [2]
  mode of action in [35S]GTPγS binding assay: competitive
